Earlier results on one substance are cited in PMC4621241.

By Kd is commonly meant a measure of binding affinity in units of concentration.

Like-named read-outs stand apart in the source and are kept apart here.

Series [1] concerns the target Maltose transporter (Escherichia coli) (UniProt P02916).
Series [2] shares this target. This is another data set of the same source.

With “Maltose binding protein (from UniProt P0AEX9)”, the Kd was 400 nM in series [1] and 80 nM in series [2].
